## AlphaSeq binding of Ab-14 heavy chain variants to a spike HR2 peptide

Reference: Li et al. 2023, doi:10.1038/s41467-023-39022-2. File: FLAb, binding data.

Binding partner: SARS-CoV-2 spike HR2 peptide, sequence PDVDLGDISGINAS.

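The starting antibody came from a phage panning campaign against this peptide. This is the validation round: designs drawn from the data on random variants, tested in the same kind of assay. Group labels follow the data file (Ctrl: baseline library sampled from a position-specific scoring matrix, with some repeated check sequences; Rand: our label for a block that the file lists under HC and that is probably the random mutants of the ten best first-round binders; En: ensemble of fine-tuned language models; GP: Gaussian process model; GPLM: also part of the Gaussian process libraries; HC: hill climbing; Gen: genetic algorithm; Gibbs: Gibbs sampling; a sequence that several methods proposed may carry one label only). In AlphaSeq, yeast of one mating type display the scFv and yeast of the other type display the target. After mating in shaken culture at 30 °C for 16 h, diploids were selected and their barcode pairs sequenced. A regression on co-assayed BCL2-family reference pairs converts the normalised counts of each replicate to an apparent Kd. Mating was done six times.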

Parent scFv Ab-14: VH joined to VL by the linker GGGGSGGGGSGGGGS. Changes lie in the heavy chain CDRs alone.
VH: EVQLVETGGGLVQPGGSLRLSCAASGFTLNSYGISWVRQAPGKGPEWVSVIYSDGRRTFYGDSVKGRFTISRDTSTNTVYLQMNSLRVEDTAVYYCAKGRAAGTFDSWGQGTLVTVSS
VL: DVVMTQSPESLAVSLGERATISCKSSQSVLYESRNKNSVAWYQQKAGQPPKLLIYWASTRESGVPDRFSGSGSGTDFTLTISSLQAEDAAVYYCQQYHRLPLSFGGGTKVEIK

Positions count from residue 1 of the parent VH; Y32H puts H in place of Y.
Variants here have at most six changes.
Affinities are written as log10 Kd with Kd in nM; a lower number is a better binder.
A mean of the replicates is given; it leaves out those without a signal.
An entry "nd" has no value in the source: the pair was not observed among the diploids in that replicate. This suggests poor binding but is not conclusive.
Where one sequence has several entries in the source, the replicates are listed entry by entry, parted by semicolons.
The authors averaged sequences with at least three values out of six and counted those with two or fewer as poor binders.
Three control strains display no target. For all heavy chain designs, 1% of the pairings with them gave a signal, with a median of 2.08 and one signal in twenty below 0.84, so weak values seen in few replicates may be background.
A sequence measured in both rounds can read differently, since the two assays cover different ranges.
Of ten entries with the parent sequence, four were seen in most replicates (averages 0.34 to 2.37), three in one and three in none, so single entries are noisy.

The variant Y32H+A102T [Ctrl] showed nd, nd, nd, nd, nd, nd. The variant T28V+S107L [Ctrl] showed nd, nd, nd, nd, nd, nd. With G61M+A101L [Ctrl] the result was nd, 0.84, 1.37, 0.91, nd, 1.79 (mean 1.23). With R56V+G61S [Ctrl+GPLM_HC] the result was 0.87, 0.72, 0.47, 0.64, 0.81, 0.55; 0.70, 0.82, 0.85, 0.85, 0.82, 0.62 (mean 0.73). With T28K+R56K+S107Q [Ctrl] the result was nd, 1.36, nd, nd, nd, nd. With T28Q+G61I+A101I [GP_HC] the result was nd, nd, nd, nd, nd, nd. For S31E+G61S+R100Q+A101C [GP_HC], the assay gave 0.07, 0.35, -0.65, 0.68, -0.22, -0.58 (mean -0.06). The variant G99S+R100K [Ctrl] showed nd, nd, nd, nd, nd, nd. The variant T28S+S31W+G61S+R100Q [GP_Gibbs] showed 1.47, 1.19, nd, 1.72, 1.46, 1.70 (mean 1.51).

For N30G+I34S+G61S+V64G+R100A [Ctrl], the assay gave nd, nd, nd, nd, nd, nd. The variant T28S+G61I+R100T+S107K [GPLM_Gibbs] showed 1.04, -0.15, -0.13, -0.04, -0.10, 0.20 (mean 0.14). For T28D+G61S+T104F [GPLM_HC], the assay gave nd, nd, nd, nd, nd, nd. The variant N30S+R100E+A101Q+S107Q [Ctrl] gave 0.15, 2.55, nd, 0.84, 0.67, 1.73 (mean 1.19). The variant F27I+D106P [Ctrl] showed nd, nd, nd, nd, nd, nd. The variant N30L+I34A+R100D+T104G+S107T [Ctrl] gave nd, nd, nd, nd, nd, nd. The variant G26K+T28K+G61A+A101T [GPLM_Gen] showed -0.44, 0.88, 0.51, 0.42, 0.05, -0.29 (mean 0.19). With T28S+Y32F+R100T [Ctrl] the result was 0.72, 0.68, 1.01, 0.69, 0.86, 1.42 (mean 0.90). For N30D+Y32P+G103K+F105A+D106L [Rand], the assay gave nd, nd, nd, nd, nd, nd.

With T58C+R100V+A101Q+A102G+S107W [Ctrl] the result was nd, nd, nd, nd, nd, nd. With T28S+S31E+A101M+S107T [GP_Gen] the result was 0.84, 1.03, 0.55, 0.66, 0.69, 0.75 (mean 0.75). The variant T28E+S31M+G61V+A101Q+S107T [GP_Gibbs] showed 1.00, 1.34, 1.13, 1.09, 1.58, 1.55 (mean 1.28). With I34G+S53A+R56I [Ctrl] the result was nd, nd, 1.47, nd, nd, nd. The variant T28S+S31D+R56Q+G61V+A101T [GP_Gibbs] showed 0.09, -0.20, -0.25, -0.64, 0.04, 0.57 (mean -0.07). For S31E+G61Q+S63Q+A102T [Ctrl], the assay gave nd, nd, nd, nd, nd, nd. With R100K+G103D [Ctrl] the result was nd, nd, nd, nd, nd, nd. For G103S [Ctrl], the assay gave nd, nd, nd, 2.50, 0.94, nd (mean 1.72). With T28S+S63N+A101N [GP_Gen] the result was 0.56, 0.43, 0.21, 0.42, 0.23, 0.54 (mean 0.40).

The variant G26K+T28S+A101N [GP_Gen] showed nd, nd, nd, nd, nd, nd. For T28S+S31E+D62Q+A101T [GPLM_Gen], the assay gave 0.53, 0.09, 0.46, 0.61, 0.25, 0.84 (mean 0.47). The variant F27A+I34G [Ctrl] gave nd, 2.14, nd, nd, nd, nd. With T28N+S31E+S53A+R56V+G61A+R100E [En_HC] the result was 0.45, -0.01, 0.05, -0.11, 0.32, 0.60 (mean 0.22). The variant S31E+I51M+S63E+A102T [Ctrl] showed nd, nd, nd, nd, nd, nd.

Excerpt, the final 3 entries:

Variant F27A+I34G [Ctrl] showed nd, 2.14, nd, nd, nd, nd.
Variant T28N+S31E+S53A+R56V+G61A+R100E [En_HC] showed 0.45, -0.01, 0.05, -0.11, 0.32, 0.60 (mean 0.22).
Variant S31E+I51M+S63E+A102T [Ctrl] showed nd, nd, nd, nd, nd, nd.